The chains behind the UniProt entries cited, without tags or fusion partners. Residues count along the entry.
UniProt Q07817, 1-209 limits assumed: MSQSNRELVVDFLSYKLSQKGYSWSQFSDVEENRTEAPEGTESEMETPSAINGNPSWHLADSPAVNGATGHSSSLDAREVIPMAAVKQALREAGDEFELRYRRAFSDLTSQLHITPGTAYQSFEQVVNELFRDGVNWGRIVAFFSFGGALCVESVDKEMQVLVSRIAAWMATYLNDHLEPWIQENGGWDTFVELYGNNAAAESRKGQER

According to patent US20200262914A1 (MIT, published 2020):

Target: T1, human Bcl-xL (residues 1-209) (human, UniProt Q07817 1-209)
T1 construct: range 1-209
Assay: competition FP vs fluoresceinated Bim BH3, solution

With QWAREIGAQLRRMADDLNAQYER (N-terminal acetylation; C-terminal amidation, also called Puma BH3 peptide) [Puma] the Ki was 1 nM.
